The entries are a selection whose mix differs from that of the whole data set. Records with an inconclusive call do not appear. Calls of active or inactive are those of the source.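 Rule for the calls: active = thallium flux slope above the same plate's solvent-control mean plus 3 SD in both duplicate wells; inconclusive = duplicate wells that disagreed; inactive = the rest.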
test: native HEK Tl+ uptake effects, second counter-screen – HEK cells, counterscreen 2, counter-screen for KCC2 modulator project, confirmation (AID 1718); conditions: HEK293 parental, thallium flux FluoZin-2 fluorescence slope; at 10 µM;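 note: run without ouabain in cells lacking the KCC2 cotransporter; slope of fluorescence scaled to its starting value between 10 and 20 s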
Procedure, shortened: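 System: Parental HEK cells | Also added: Thallium sulfate stimulus buffer | Compound dosing: Single 10 µM final compound dose, 0.1% DMSO | Schedule: Overnight cell culture at 37 °C, 48 min dye loading, compound before thallium | Signal: FluoZin-2 fluorescence kinetics | Repeats: Replicate wells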

| SMILES | thallium flux slope |
| --- | --- |
| CP(=O)(Nc1ccccc1)Oc1ccc(F)cc1 (stereo unspecified) | inactive: 0.0103 |
